# Results: ChEMBL document CHEMBL5625172, “Synthesis and evaluation of dihydrofuro[2,3-b]pyridine derivatives as potent IRAK4 inhibitors” (Eur J Med Chem, 2023)
# The chains behind the UniProt entries cited, without tags or fusion partners.
# UniProt Q9NWZ3, whole entry: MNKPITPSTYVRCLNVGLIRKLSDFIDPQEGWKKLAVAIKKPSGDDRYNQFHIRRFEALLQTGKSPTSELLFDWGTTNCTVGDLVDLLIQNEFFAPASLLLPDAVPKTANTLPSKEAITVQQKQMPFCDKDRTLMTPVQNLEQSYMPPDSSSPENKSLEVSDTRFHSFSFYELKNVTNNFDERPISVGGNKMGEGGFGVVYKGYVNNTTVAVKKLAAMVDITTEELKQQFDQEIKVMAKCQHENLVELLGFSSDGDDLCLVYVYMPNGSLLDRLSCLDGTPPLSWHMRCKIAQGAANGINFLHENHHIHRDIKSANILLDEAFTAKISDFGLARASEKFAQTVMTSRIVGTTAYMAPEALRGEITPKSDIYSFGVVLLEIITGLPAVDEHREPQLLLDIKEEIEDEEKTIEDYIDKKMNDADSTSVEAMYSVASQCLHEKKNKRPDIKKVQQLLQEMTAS
# Molecular target: Interleukin-1 receptor-associated kinase 4 (Homo sapiens, UniProt Q9NWZ3)
# Test: Binding affinity to IRAK4 (unknown origin) by kinomescan competition binding assay
smiles,measurement,value
Cn1cc(-c2cccc(NC(=O)c3cc4c(nc3O[C@H]3C[C@@H](O)C3)OC(C)(C)C4)n2)cn1,Kd,350 pM
